Laboratory results: patent US8207190B2, “Enantiomer of tenatoprazole and the use thereof in therapy” (Mitsubishi Tanabe Pharma Corporation, priority 2003, dated 2012)

System: CYP2C19 and CYP3A4
Experiment: metabolic pathways of the tenatoprazole isomers
Conditions: cytochrome pathways that metabolise the isomer

SMILES	metabolic pathway
COc1ccc2[nH]c([S+]([O-])Cc3ncc(C)c(OC)c3C)nc2n1 (single isomer, unassigned; (-)) [(−) enantiomer]	two pathways, i.e. CYP2C19 and CYP3A4
COc1ccc2[nH]c([S+]([O-])Cc3ncc(C)c(OC)c3C)nc2n1 (single isomer, unassigned; (+)) [(+) form]	one preponderant pathway, CYP2C19
